The record followed here is patent US20170101466A1 (published 2017).

The chains behind the UniProt entries cited, without tags or fusion partners. Residues count along the entry.
UniProt Q9WU72, 127-309 limits assumed: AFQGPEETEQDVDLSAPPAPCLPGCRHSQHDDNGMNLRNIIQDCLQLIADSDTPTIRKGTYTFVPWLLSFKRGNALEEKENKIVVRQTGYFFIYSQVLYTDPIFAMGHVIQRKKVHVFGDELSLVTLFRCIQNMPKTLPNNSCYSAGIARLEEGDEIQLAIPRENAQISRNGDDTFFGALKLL
UniProt Q9Y275, 134-285 limits assumed: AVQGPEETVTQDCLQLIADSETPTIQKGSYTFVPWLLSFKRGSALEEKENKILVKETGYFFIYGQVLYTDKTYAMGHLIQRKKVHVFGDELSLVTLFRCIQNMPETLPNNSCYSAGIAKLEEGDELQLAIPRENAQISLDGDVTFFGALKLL

One assay deals with T1, mouse APRIL (mouse, UniProt Q9D777 96-241, limits assumed).
T1 construct: Bought recombinant protein; also called mAPRIL
T1 sequence (looked up): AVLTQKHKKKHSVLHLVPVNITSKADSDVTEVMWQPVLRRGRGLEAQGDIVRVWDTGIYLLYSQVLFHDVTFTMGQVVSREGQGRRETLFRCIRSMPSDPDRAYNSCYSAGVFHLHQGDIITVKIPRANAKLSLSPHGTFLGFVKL
The assay can be described thus: Biacore, antibody captured, APRIL injected at 50 nM. As for the experimental part:
(§1) Recombinant protein NG (Thermo Scientific, Cat #21186) was diluted to 100 μg/ml in 10 mM Sodium Acetate pH 4.0 and then immobilized on the surface of a pre-activated Series S CM4 Biacore chip (GE, Cat #BR-1005-34) using amine coupling. The monoclonal antibodies were captured individually on each of the four CM4 chip flow cells (with flow cell one serving as a reference) by injecting about 5 μg/ml monoclonal antibodies over individual flow cells for 120 seconds at 10 μl/min (yields 1,000-2,000 RU capture). To determine binding of human APRIL (R&D Systems, Cat #5860-AP-010/CF) and mouse APRIL (R&D Systems, Cat #7907-AP-010/CF) to the anti-BLyS antibodies, the APRIL protein as injected manually at 50 nM for 300 seconds at 10 μl/min. Binding response was measured as the difference in total RU increase during 300 second APRIL injection of each individual flow cell and the reference flow cell (e.g., Flow cell 2-1).

In assay [1] the target is T2, soluble mouse BLyS (mouse, UniProt Q9WU72 127-309).
T2 construct: europium-labelled in DELFIA; also called mBLyS; mouse BAFF (BLyS)
In words: DELFIA competition, Eu-mBLyS binding to coated BCMA. As for the experimental part:
(§2) Anti-BLyS mAb receptor blocking assay was evaluated using Perkin Elmer's DELFIA assay technology (dissociation-enhanced lanthanide fluorescence immunoassay) which is a time-resolved fluorescence (TRF) intensity technology. […] DELFIA yellow 96-well low auto-fluorescent assay plates (PE, Cat #AAAND-0001) were coated overnight at 4° C. with 0.1 μg/well of select human or mouse BLyS cognate receptor chimera from R&D Systems (BCMA, BR3 and TACI). After 5× washing with 200 ul/well of DELFIA 1× wash solution (PE, Cat #4010-0010), plates were blocked with 3% BSA purified from trace heavy metal amounts (PE, Cat #CR84-100) for 3 hours with shaking at room temperature. Plates were washed again five times at 200 μl/well with DELFIA wash solution.
(§3) After wash, 50 μl/well of BLyS mAbs were added to wells across the plate in a 9 point 1/3-fold dilution titration series starting at 2,000 pM to 0.3 pM. The final 3 wells across the plate served as controls (2 wells contained 2,000 pM mAbs for negative and background controls while the third contained no mAbs for positive control). 50 ul/well of 100 pM BLyS was then added to each well, except the negative-control wells, and plates were briefly spun down. After 18-24 hrs at 4° C., plates were read on PE EnVision plate reader with laser excitation, LANCE/DELFIA top mirror, and emission filter Eu-615 with a delay of 400 μs. Data were fit to four parameter (variable slope) inhibition dose response curve using GraphPad PRISM 5.0 software.

The next assay deals with T3, human APRIL (human, UniProt O75888 105-250, limits assumed).
T3 construct: Bought recombinant protein; also called hAPRIL
T3 sequence (looked up): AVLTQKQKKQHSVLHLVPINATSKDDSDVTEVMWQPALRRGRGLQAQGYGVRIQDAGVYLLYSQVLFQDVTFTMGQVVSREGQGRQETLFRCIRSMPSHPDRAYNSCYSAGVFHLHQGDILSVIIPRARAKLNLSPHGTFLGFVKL
In words: Biacore, antibody captured, APRIL injected. On the procedure:
as §1

For assay [2], the target named is T4, soluble human BLyS (human, UniProt Q9Y275 134-285).
T4 construct: also called hBLyS; human BAFF (BLyS)
In words: DELFIA competition, Eu-hBLyS binding to coated BR3. On the procedure:
as §2, §3

The target in assay [3] is T4, soluble human BLyS. In words: Biacore T100, binder captured by anti-human Fc, BLyS injected, 1:1 model. On the procedure:
(§4) A Series S CM5 Chip (GE Healthcare) was amine coupled with an anti-human Fc capturing antibody (GE Healthcare Human Fc Kit) to >10,000 RUs. Sample antibodies were diluted in 1×HBS-EP+ running buffer to 0.15 ug/mL and injected for 45 seconds at 10 uL/min. Serially diluted human or mouse BLyS (R&D Systems) was injected for 6 minutes at 30 μl/min and dissociation was monitored for 20 minutes. The anti-BLyS and BLyS complex were removed from the capture surface with 3M MgCl₂ for 40 seconds at 10 μl/min. Binding data was reference subtracted with both a negative BLyS binder (commercial Herceptin) and a 0 μM BLyS injection. Biacore Evaluation software was used to fit the data to a 1:1 Binding Model.
For orientation: SPR reads the build-up and loss of mass on a sensor chip optically.

The target in assay [4] is T2, soluble mouse BLyS. The assay is described as above. On the procedure: as §4
The target in assay [5] is T4, soluble human BLyS. The assay can be described thus: DELFIA competition, Eu-hBLyS binding to coated TACI. As for the experimental part: as §2, §3
For assay [6], the target named is T4, soluble human BLyS. The assay can be described thus: DELFIA competition, Eu-hBLyS binding to coated BCMA. As for the experimental part: as §2, §3
Assay [7] concerns the target T2, soluble mouse BLyS. The assay can be described thus: DELFIA competition, Eu-mBLyS binding to coated BR3. On the procedure:
as §2, §3

In assay [8] the target is T2, soluble mouse BLyS. The assay can be described thus: DELFIA competition, Eu-mBLyS binding to coated TACI. As for the experimental part: as §2, §3
Assay [9] has as its target T4, soluble human BLyS. In words: Biacore, antibody captured on chip, BLyS injected, 1:1 model, 25 C. On the procedure:
(§5) Recombinant protein NG (Thermo Scientific, Cat #21186) was diluted to 100 μg/ml in 10 mM sodium acetate pH 4.0 and then immobilized on the surface of a pre-activated Series S CM5 Biacore chip (GE, Cat #BR-1005-34) using amine coupling. To determine binding kinetics of anti-BLyS antibodies to human BLyS (R&D systems, Cat #2149-BF-010/CF) or mouse BLyS (R&D Systems, Cat #2106-BF-010/CF), the mAbs were captured on each of the four CM5 chip flow cells (with flow cell one serving as a control and reference) by injecting 0.5 μg/ml Abs over individual flow cells for 30 seconds at 10 μl/min (yields ˜100 RU capture). hBLyS or mBLyS was then passed over all four flow cells at 30-50 μl/min for 600 seconds, followed by a dissociation period of 2,400 seconds. After the dissociation period, the chip was regenerated back to baseline by injecting 10 mM glycine pH 1.5 for 120 seconds over the four flow cells. This was repeated for each BLyS injection over 11 injections of a 2/3-fold dilution titration range starting at 20 nM. The entire data set was fit to a 1:1 interaction model to give kₒₙ, koff, and Kd values. The assay was run at 25° C. in 1× biacore running buffer HBS-EP+ (GE, Cat #BR-1006-69).

The target of assay [10] is T2, soluble mouse BLyS. The description is as above. On the procedure: as §5

B1: 10C11 IgG1 F243A/V264A double mutein expressed in Pichia pastoris (antibody, V domains shown)
VH: EVQLVQSGAEVKKPGSSVKVSCKASGGTFSSYAISWVRQAPGQGLEWMGRIIPILGIANYAQKFQGRVTITADKSTSTAYMELSRLRSDDTAVYYCARDRFYDILTGYYTYYYGMDVWGQGTTVTVSS
VL: DIVLTQSPGTLSFSPGERATLSCRASQNVANNFLAWFQHSPGQAPRLLIYDASNRATGIPARFSGSGSGTDFTLTISSLQTEDVAVYYCQQYYNLPYTFGQGTKLEIKR
Regarding B1, the binding result was “binds” in the assay with mouse APRIL and “no binding (tested: 50 nM)” in the assay with human APRIL. The IC50 with soluble mouse BLyS [1] was over 2 nM; with soluble human BLyS [2] it was 0.041 nM; with soluble human BLyS [5], 0.0012 nM; in the assay with soluble human BLyS [6], 0.0012 nM; with soluble mouse BLyS [7], over 2 nM; in the assay with soluble mouse BLyS [8], over 2 nM. Also, the Kd with soluble human BLyS [3] is 0.098 nM; with soluble mouse BLyS [4], 0.134 nM; in the assay with soluble human BLyS [9], 0.194 nM; in the assay with soluble mouse BLyS [10] it was 0.154 nM. Besides, the off-rate constant (koff) is 8.4e-05 s⁻¹ with soluble human BLyS [3], 0.000275 s⁻¹ with soluble mouse BLyS [4], 4.3e-05 s⁻¹ with soluble human BLyS [9] and 6.6e-05 s⁻¹ with soluble mouse BLyS [10]. The kon came to 855000 M⁻¹ s⁻¹ with soluble human BLyS [3], 2.06e+06 M⁻¹ s⁻¹ with soluble mouse BLyS [4], 220000 M⁻¹ s⁻¹ with soluble human BLyS [9] and 430000 M⁻¹ s⁻¹ with soluble mouse BLyS [10].

For orientation: IC50 means the point on the concentration scale where inhibition reaches its midpoint. Read a high IC50 as weaker potency in that assay. As usually defined, the Kd is the free concentration of one partner at which half of the binding sites on the other are occupied at equilibrium, for simple one-to-one binding. Read a low Kd as tighter binding. As usually defined, the koff is the first-order rate constant of dissociation. Usually kon stands for the rate constant with which the complex forms. A low value points to slow association.
